Data on two molecules can be found in paper PMC12409883 (Journal of Medicinal Chemistry, 2025).

Series [1] deals with BALBc/J mice. The experiment in a line: In vivo ERG measurement of rod dark adaptation after photobleach, IP dosing. The following applies: 10 mg/kg single IP, after 8 h of dark adaptation. More on the design: species or system mouse.
In the next series the test system is Abca4–/–Rdh8–/– mice. Briefly: Photic retinal damage in Abca4–/–Rdh8–/– mice. Format: in vivo, mouse. The following applies: 50 mg/kg oral versus 10 mg/kg IP.
In series [2] the test system is BALBc/J mice. Briefly: In vivo scotopic ERG 2 h after photobleach, oral gavage dosing. Also on record: species or system mouse. The following applies: 10 mg/kg oral gavage, photobleach after 30 min, 2 h in the dark.

Turning to `CCC(CC)C(=O)Oc1cccc(C(O)CCN)c1.O=CO` (stereo not drawn) [Compound 6, 3-(3-Amino-1-hydroxypropyl)phenyl 2-ethylbutanoate formate], the “a- and b-wave amplitudes recovered, relative to the vehicle group” value in the series on BALBc/J mice [1] is about 80%.
As for `CCCC(CCC)C(=O)Oc1cccc(C(O)CCN)c1.O=CO` (stereo not drawn) [Compound 7, 3-(3-Amino-1-hydroxypropyl)phenyl 2-propylpentanoate formate], in the series on Abca4–/–Rdh8–/– mice, the “efficacy of oral treatment on ONL thickness relative to the IP control” value is “less than 50%”. Moreover, the “scotopic ERG b-wave amplitude relative to vehicle treatment” value in the series with BALBc/J mice [2] is given as about 50%.
